Test results from PMC6395531 (2019).

Test system: tester strains TA98, TA100, TA1535, TA97a, WP2 uvrA and TA1537
Details: with or without S9; monotartaric salts

CCc1cc(F)c2nc(N3CCC(NC4CCOCC4)CC3)c(-c3nc(C)no3)c(C)c2c1 [Compound 58, 1-(6-ethyl-8-fluoro-4-methyl-3-(3-methyl-1,2,4-oxadiazol-5-yl)quinolin-2-yl)-N-(tetrahydro-2H-pyran-4-yl)piperidin-4-amine]
mutagenicity in the Ames assays: Neither analog showed mutagenicity in the Ames assays, with or without the addition of S9
